This passage reports EC50 cAMP, Alpha Screen and EC50 cAMP, DiscoveRx results from patent US20080026996A1, “Selective Vpac2 Receptor Reptide Agonists” (ELI LILLY AND COMPANY, priority 2004, published 2008).

The assay concerns the target T1, human VPAC2 receptor (human, UniProt P41587 24-438).
T1 sequence (looked up): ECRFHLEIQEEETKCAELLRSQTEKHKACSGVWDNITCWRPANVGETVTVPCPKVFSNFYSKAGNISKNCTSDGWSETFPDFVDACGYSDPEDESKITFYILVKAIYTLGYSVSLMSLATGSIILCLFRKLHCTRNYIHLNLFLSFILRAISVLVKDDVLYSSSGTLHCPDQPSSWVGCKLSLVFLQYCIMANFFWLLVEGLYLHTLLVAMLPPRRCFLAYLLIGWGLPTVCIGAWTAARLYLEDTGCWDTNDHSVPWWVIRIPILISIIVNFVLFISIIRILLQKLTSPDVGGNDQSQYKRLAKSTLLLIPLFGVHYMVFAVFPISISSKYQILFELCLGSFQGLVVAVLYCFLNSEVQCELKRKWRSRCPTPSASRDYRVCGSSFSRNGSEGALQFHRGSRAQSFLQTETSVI
The assay is described as follows: cell-based or functional assay.

Where no end group is shown, it is not given here. [ ]: non-standard residue; d: D form. hArg = N=C(N)NCCCC[C@H](N)C(=O)O

HSDAVFTDNYTRLRKQVAA[hArg]KYLQSIKNKRYGGPSSGAPPPS (ends and bridges not checked) [P18] showed an EC50 cAMP, Alpha Screen of 3.31 nM and an EC50 cAMP, DiscoveRx of 2.87 nM.
